# From PubChem BioAssay AID1347430 (National Center for Advancing Translational Sciences (NCATS), 2020)
# The list shows a part of the results, in another mix than the full data. Calls of active or inactive are those of the source. Calls follow the shape of the dose curve; as a rule, active = well fitted inhibition curve with a large enough effect; inconclusive = small, poorly fitted or top-dose-only effect; inactive = flat fitted curve, though single readings scatter. Where a call stands in place of a potency, no number is given.
# Test system: Uracil-DNA glycosylase
# Experiment: Primary qHTS assay for inhibitors of Activation Induced Cytidine Deaminase (AID): UDG Counterscreen signal; also: nearly all actives have a fitted effect of over 65% in size
# Settings: FRET deamination/UDG coupled assay, UDG read, 4 h; series mostly up to 115 µM
# Text: Assay Provider (PI) Patricia Gearhart Ph.D.
# National Institute on Aging
# National Institute of Health (NIH), Bethesda, MD
# Assay Provider (PI) Rahul Kohli Ph.D.
# Perelman School of Medicine
# University of Pennsylvania, Philadelphia, PA
# Activation-Induced Deaminase (AID) is a cytosine deaminase which converts cytosine into uracil within stretches of ssDNA. The presence of uracil in DNA initiates a cascade of mutagenic DNA repair to introduce point mutations and DNA double strand breaks. Specific targeting of AID to the immunoglobulin heavy chain loci (Igh) promotes mutagenesis in the antibody variable region for somatic hypermutation (SHM) or switch regions leading to class switch recombination (CSR). However, AID also plays a role in accumulating unnecessary mutations across the genome. Mis-targeting of AID results in the initiation of tumor development and leads to greater drug resistance among cancer cells when continually expressed. To identify an AID inhibitor, a small molecule library will be screened in collaboration with NCATS core facility at NIH. To confirm biological function, inhibitors will be examined in an in vitro murine B-cell activation assay and subsequent secondary validation screens. Top molecules will be further screened to identify inhibitory efficacy against a wild type primary splenocytes assay. Using these approaches, we hope to identify a small molecule with great efficacy and low toxicity for use as a molecular probe to further characterize AID's intricacies, or even as a therapeutic.
# A FRET based analysis of cytosine deamination, was developed to identify potential inhibitors of AID catalytic activity. This screen has two signal output, Read 1 evaluates the AID inhibition response. The second readout (Read 2) evaluates UDG response and is uses as a counterscreen to exclude false positive inhibitors. Inhibition in AID and inactivity in the UDG signal is the desired outcome for this assay.
# SEQUENCE No. (e.g., 1, 2, 3, etc.); […] (e.g., Cells, Incubation, Reagent, etc.); VALUE; DESCRIPTION
# 1a; Reagent; 3 uL; [4/3x] 1 uM AID/2.67 U/mL UDG
# 1b; Reagent; 3 uL; 2 U/mL UDG
# 1c; Reagent; 3 uL; 1 uM AID
# 2a; Compound; 46 nL; Follow-up plates (0.64 uM - 10 mM)
# 2b; Control; 46 nL; ATA ([…] - 10 mM)
# 3; Time; 10 min; incubation at room temperature
# 5; Time; 4 hr; incubation at room temperature
# 6; Reagent; 4 uL; [2x] 250 mM NaOH
# 7; Time; 15 sec; centrifuge at 1000 rpm
# 8; Time; 30 min; incubation at room temperature
# 9a; Detection; fluorescence (Read 1: AID); EnVision (PerkinElmer) plate reader, 540 excitation and 590 emission filters
# 9b; Detection; fluorescence (Read 2: UDG); EnVision (PerkinElmer) plate reader, 560 excitation and 665 emission filters
# NOTES (numbers refer to sequence above)
# 1a; Reagents were dispensed in a medium-binding black solid-bottom Greiner plates (789176F) using a BioRptr liquid dispenser. Dispense 3 uL of [4/3x] 1 uM AID (provided by Kohli lab) and [4/3x] 2 U/mL UDG (NEB M0280L) into columns 1, 2, 5 to 48.
# 1b; Dispense 3 uL of [4/3x] 2 U/mL UDG into column 3.
# 1c; Dispense 3 uL of [4/3x] 1 uM AID into column 4.
# 2a; Compound (7-points [uM] (0.64; 3.2; 16; 80; 400; 2,000; 10,000; 20,000) double pin-transferred (Dip Factor = 2) using the Kalypsys (Wako USA) pintool equipped with a 1536 pinhead for a final concentration range of 7.32 nM - 114 uM.
# 2b; 10 mM Aurintricarboxylic Acid (Sigma A1895) (ATA, 8-point, n = 2, 1:2.5 dilution in column 2) double pin-transferred (Dip Factor = 2) using the Kalypsys (Wako USA) pintool equipped with a 1536 pinhead for a [final] range of 186 nM - 114 uM.
# 3; Room temperature incubation.
# 4; Dispense 1 uL of substrate mixture from the Kohli lab [4x] […] DJC20 and [4x] 250 nM DJC23 into columns 1 to 48 .
# 5; Room temperature incubation.
# 6; Dispense 4 uL of substrate mixture [2x] 250 mM NaOH into columns 1 to 48.
# 7; Centrifugation step to remove bubbles.
# 8; Room temperature incubation
# 9a; Fluorescence signal (column label AID) was read using the EnVision plate reader. […]
# Potency is read from the fitted curve at half-maximal effect.
row,SMILES,Potency
1,Cc1ccc(C(C)CCN(CCCl)CCCl)cc1 (stereo unspecified),inactive
2,O=C(NCC1(N2CCCCC2)CCCCC1)c1c[nH]c2ccccc12,inactive
3,COc1ccccc1C(=O)NCC1(N2CCOCC2)CCCCC1,inactive
4,O=C(NCC1(N2CCOCC2)CCCCC1)c1ccc(Cl)cc1,inactive
5,CC1CN(CCc2ccccc2)CCC1=O (stereo unspecified),inactive
6,Fc1ccc(CN2CCC(Nc3ccccc3Cl)CC2)cc1,inactive
7,CCCCOc1ccccc1C(=O)NCC1(N2CCOCC2)CCCCC1,inactive
8,O=C(NCC1(N2CCOCC2)CCCCC1)c1ccccc1Br,inactive
9,COc1ccccc1C(=O)NCC1(N(C)C)CCCCC1,inactive
10,CCc1cc(C(=O)NCC2(N3CCOCC3)CCCCC2)sc1C,inactive
11,CCCOc1cccc(C(=O)NCC2(N3CCOCC3)CCCCC2)c1,inactive
12,CCOc1ccc(C(=O)NCC2(N3CCOCC3)CCCCC2)cc1,inactive
13,Brc1ccc(NC2CCN(Cc3cccc(Br)c3)CC2)cc1,inactive
14,O=C(NCC1(N2CCOCC2)CCCCC1)c1ccccc1,inactive
15,O=C(NCC1(N2CCOCC2)CCCCC1)c1ccc([N+](=O)[O-])cc1,inactive
16,CC1C(=O)CCN(CCc2ccccc2)C1C (stereo unspecified),inactive
17,O=C(NCC1(N2CCOCC2)CCCCC1)c1ccccc1[N+](=O)[O-],inactive
18,Cc1cc(NC2CCN(Cc3ccccc3)CC2)ccc1Br,inactive
19,COc1cc(C(=O)NCC2(N3CCOCC3)CCCCC2)cc(OC)c1OC,inactive
20,CCCOc1ccc(C(=O)NCC2(N(C)C)CCCCC2)cc1,inactive
21,CC(C)(C)c1ccc(C(=O)NCC2(N3CCOCC3)CCCCC2)cc1,inactive
22,CC1CN(CCc2ccccc2)C(C)CC1=O (stereo unspecified),inactive
23,Cc1ccccc1C(=O)NCC1(N(C)C)CCCCC1,inactive
24,Clc1ccccc1CN1CCC(Nc2ccc(Br)cc2)CC1,active: 89.1 µM
25,CN(C)C1(CNC(=O)c2cc3c(s2)CCC3)CCCCC1,inactive
26,CN(C)C1(CNC(=O)c2ccc(C(C)(C)C)cc2)CCCCC1,inactive
